The target of the assay is T1, DPPIV (Human, recombinant) (Homo sapiens, UniProt P27487).
T1 construct: purchased Biomol (DPPIV Drug Discovery Assay Kit, Enzo Life Sciences, Inc.)
The assay can be described thus: DPPIV inhibitory activity measurement with partly modified DPPIV Drug Discovery Assay Kit (AMC substrate). Format: biochemical. The following applies: for IC50: synthesized peptide, serially diluted; for Activity Contribution Ratio (%): contribution of the peptide to the DPPIV inhibitory activity of the salmon milt peptide composition, from content, peptide IC50 and composition IC50.

By UniProt entry, the sequences of proteins in these tests, tags left out.
UniProt P27487, whole entry: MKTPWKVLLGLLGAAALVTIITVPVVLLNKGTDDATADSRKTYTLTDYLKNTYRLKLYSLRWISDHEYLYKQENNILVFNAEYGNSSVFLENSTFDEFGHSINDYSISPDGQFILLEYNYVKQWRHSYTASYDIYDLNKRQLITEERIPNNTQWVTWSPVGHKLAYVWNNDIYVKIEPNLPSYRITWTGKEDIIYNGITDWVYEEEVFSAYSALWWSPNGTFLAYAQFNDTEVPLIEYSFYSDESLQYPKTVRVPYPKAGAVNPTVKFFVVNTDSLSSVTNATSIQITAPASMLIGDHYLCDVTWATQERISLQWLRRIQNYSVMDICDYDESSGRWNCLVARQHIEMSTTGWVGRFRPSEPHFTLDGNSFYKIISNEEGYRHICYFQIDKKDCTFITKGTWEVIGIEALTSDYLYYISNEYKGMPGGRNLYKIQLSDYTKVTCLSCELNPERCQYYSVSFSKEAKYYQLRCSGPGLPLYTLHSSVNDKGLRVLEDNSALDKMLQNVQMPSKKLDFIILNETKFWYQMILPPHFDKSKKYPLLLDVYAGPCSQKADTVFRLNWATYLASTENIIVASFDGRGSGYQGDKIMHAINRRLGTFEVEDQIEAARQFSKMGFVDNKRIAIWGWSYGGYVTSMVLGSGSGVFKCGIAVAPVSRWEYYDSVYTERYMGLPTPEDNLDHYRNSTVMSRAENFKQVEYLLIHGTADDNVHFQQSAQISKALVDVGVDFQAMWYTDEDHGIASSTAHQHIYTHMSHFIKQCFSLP

Some results are limits rather than exact numbers.

The term IC50 denotes the point on the concentration scale where inhibition reaches its midpoint. Consider `CC[C@H](C)[C@H](NC(=O)[C@@H](N)C(C)C)C(=O)N1CCC[C@H]1C(=O)O` [VIP, Val-Ile-Pro], for which the IC50 is over 100 µM.
With `CC[C@H](C)[C@H](NC(=O)[C@@H]1CCCN1C(=O)[C@@H](N)C(C)C)C(=O)O` [VPI, Val-Pro-Ile], the “Activity Contribution Ratio (%)” value was 5.1% and the IC50 came to 3 µM.
As to `CC(C)C[C@H](N)C(=O)N1CCC[C@H]1C(=O)N[C@@H](Cc1ccccc1)C(=O)O` [LPF, Leu-Pro-Phe], the “Activity Contribution Ratio (%)” value is 0.2% and the IC50 amounted to 88 µM.
For `CC[C@H](C)[C@H](N)C(=O)N1CCC[C@H]1C(=O)N[C@@H](CC(C)C)C(=O)O` [IPL, Ile-Pro-Leu], in that order: 0.4% and 26 µM.
The corresponding values for `CC[C@H](C)[C@H](N)C(=O)N1CCC[C@H]1C(=O)N[C@H](C(=O)O)[C@@H](C)CC` [IPI, Ile-Pro-Ile] are 2.5% and 3 µM.
`CC(C)C[C@H](NC(=O)[C@@H]1CCCN1C(=O)[C@@H](N)CC(C)C)C(=O)O` [LPL, Leu-Pro-Leu]: the “Activity Contribution Ratio (%)” value came out at 0.1% and the IC50 is 82 µM.
For `CC(C)C[C@H](NC(=O)[C@@H]1CCCN1C(=O)[C@@H](N)C(C)C)C(=O)O` [VPL, Val-Pro-Leu], in that order: 2.0% and 19 µM.

(Values after patent US10513538B2, “Dipeptidyl peptidase-IV (DPPIV), inhibitory peptide compound, composition containing the same, and production method for the same” (MARUHA NICHIRO CORPORATION, priority 2013, dated 2019).)
